In patent US20230159537A1, “COMPOUND, PREPARATION METHOD THEREOF, AND USE THEREOF IN PREPARATION OF ANTI-CANCER DRUG” (TIANJIN JIKUN MEDICAL TECHNOLOGY CO., LTD., priority 2020, published 2023):

System: FGFR2 and downstream signaling pathway in SNU-16 cells
Format: cell-based, human

`COc1cc(OC)cc(-c2nn(CCCCCN3CCN(C(=O)/C=C/C(F)(F)F)CC3)c3ncnc(N)c23)c1` [Compound 36] was tested, and the “phosphorylation / activation of FGFR2 in SNU-16 cells” value was “significantly inhibited; also recorded: inhibits the activation of FGFR2 and a downstream signaling pathway thereof”.

“Also recorded” adds a separate entry of the source.
